Assay [1] has as its system Schistosoma mansoni. Nature of the assay: microbe, parasite or virus in culture. To be noted: Liberian, 72 h.
Assay [2] relates to Schistosoma mansoni. Briefly: microbe, parasite or virus in culture. To be noted: 72 h.

This note sets out measurements from ChEMBL document CHEMBL4811216, “Chemotherapy for human schistosomiasis: how far have we come? What's new? Where do we go from here?” (RSC Med Chem, 2020).

As to `Fc1ccc(Cl)cc1-c1nc(Nc2ccncc2)c2nccnc2n1`, the IC50 (as a rule, the midpoint of a concentration-inhibition curve) in the assay with Schistosoma mansoni [1] stood at 7200 nM; in the assay on Schistosoma mansoni [2], 7500 nM.

Turning to `O=C(O)Cc1cccc(OCCCN(Cc2cccc(C(F)(F)F)c2Cl)CC(c2ccccc2)c2ccccc2)c1`, in the assay on Schistosoma mansoni [1], the IC50 was 2100 nM.

`CC#CC(=O)Nc1ccc2ncnc(Nc3cccc(Br)c3)c2c1` yielded an IC50 with Schistosoma mansoni [2] of 3700 nM.

`CNCc1ccc(C)c(NC(=O)c2ccc(Nc3nc(-c4ccccc4)c4ccccc4n3)cc2)c1` [BMS-833923]: the figures for the IC50 with Schistosoma mansoni [1] and in the assay with Schistosoma mansoni [2] were 3500 nM and 2500 nM, respectively.

In the assay with Schistosoma mansoni [1], `Nc1nc2ccc(Cl)cc2c2nc(-c3ccco3)nn12` [CGS-15943] returned an IC50 of 1700 nM.

As for `COc1ccc(NC(=O)c2ccc(-c3ccc(-c4noc(C)n4)cc3C)cc2)cc1N1CCN(C)CC1` [GR-127935], the figures for the IC50 in the assay on Schistosoma mansoni [1] and with Schistosoma mansoni [2] were 1200 nM and 2700 nM, respectively.

On to `CCOc1cc2ncc(C#N)c(Nc3ccc(F)c(Cl)c3)c2cc1NC(=O)/C=C/CN(C)C` [PELITINIB], for which, in the assay on Schistosoma mansoni [2], inhibition was half-maximal at 2900 nM (IC50).
